{
  "sequences": {"note": "Sequences of proteins named here, by UniProt entry; tags and fusion partners are left off.", "UniProt P41145, whole entry E297A": "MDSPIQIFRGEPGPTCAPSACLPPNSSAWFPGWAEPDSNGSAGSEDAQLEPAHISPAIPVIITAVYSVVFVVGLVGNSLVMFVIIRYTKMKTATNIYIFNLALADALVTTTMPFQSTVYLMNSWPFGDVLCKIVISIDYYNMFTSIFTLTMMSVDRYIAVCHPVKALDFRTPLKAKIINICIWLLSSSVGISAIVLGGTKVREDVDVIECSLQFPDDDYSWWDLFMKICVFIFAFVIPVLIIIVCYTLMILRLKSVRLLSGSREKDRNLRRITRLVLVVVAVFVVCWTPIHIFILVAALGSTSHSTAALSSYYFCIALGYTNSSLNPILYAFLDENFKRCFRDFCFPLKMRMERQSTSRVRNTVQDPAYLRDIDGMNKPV"},
  "source": "paper PMC3356457",
  "about": "(Nature, 2012)",
  "target": "hKOR E297A (Homo sapiens, UniProt P41145, E297A)",
  "type": "binding",
  "data": [
    {"compound": "Oc1ccc2c3c1O[C@H]1c4[nH]c5c(c4C[C@@]4(O)[C@@H](C2)N(CC2CC2)CC[C@]314)C[C@@]1(O)[C@H]2Cc3ccc(O)c4c3[C@@]1(CCN2CC1CC1)[C@H]5O4", "note": "[nor-BNI]", "values": [
      {"measurement": "Effect of Glu297Ala mutation on binding", "result": "significant drop"}
    ]}
  ]
}
